Measurements: US9259422B2, “Orvinol and thevinol derivatives useful in the treatment of depression” (dated 2016)

Chains of the proteins cited; added tags and fusions are not shown.
UniProt P41146, whole entry: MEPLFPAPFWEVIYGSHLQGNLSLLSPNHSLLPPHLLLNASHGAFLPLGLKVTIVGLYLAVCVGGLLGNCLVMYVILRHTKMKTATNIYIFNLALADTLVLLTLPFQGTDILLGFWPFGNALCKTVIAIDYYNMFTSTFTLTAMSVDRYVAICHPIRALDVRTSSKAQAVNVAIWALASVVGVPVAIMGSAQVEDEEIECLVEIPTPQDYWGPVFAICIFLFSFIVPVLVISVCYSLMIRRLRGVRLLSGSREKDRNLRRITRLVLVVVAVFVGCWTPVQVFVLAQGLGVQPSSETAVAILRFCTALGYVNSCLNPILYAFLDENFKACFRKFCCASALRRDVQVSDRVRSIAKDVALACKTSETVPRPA
UniProt P33535, whole entry: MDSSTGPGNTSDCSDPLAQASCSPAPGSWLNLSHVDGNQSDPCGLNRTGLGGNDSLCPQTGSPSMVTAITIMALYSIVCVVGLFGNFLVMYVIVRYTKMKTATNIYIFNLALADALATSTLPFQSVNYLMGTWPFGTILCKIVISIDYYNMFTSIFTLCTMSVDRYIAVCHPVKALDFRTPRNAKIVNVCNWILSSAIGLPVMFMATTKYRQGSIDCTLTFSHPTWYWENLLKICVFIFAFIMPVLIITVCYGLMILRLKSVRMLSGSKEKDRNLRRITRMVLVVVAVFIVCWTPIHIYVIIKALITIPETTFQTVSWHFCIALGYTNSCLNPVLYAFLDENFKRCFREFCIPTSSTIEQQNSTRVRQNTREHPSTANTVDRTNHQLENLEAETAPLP
UniProt P41145, whole entry: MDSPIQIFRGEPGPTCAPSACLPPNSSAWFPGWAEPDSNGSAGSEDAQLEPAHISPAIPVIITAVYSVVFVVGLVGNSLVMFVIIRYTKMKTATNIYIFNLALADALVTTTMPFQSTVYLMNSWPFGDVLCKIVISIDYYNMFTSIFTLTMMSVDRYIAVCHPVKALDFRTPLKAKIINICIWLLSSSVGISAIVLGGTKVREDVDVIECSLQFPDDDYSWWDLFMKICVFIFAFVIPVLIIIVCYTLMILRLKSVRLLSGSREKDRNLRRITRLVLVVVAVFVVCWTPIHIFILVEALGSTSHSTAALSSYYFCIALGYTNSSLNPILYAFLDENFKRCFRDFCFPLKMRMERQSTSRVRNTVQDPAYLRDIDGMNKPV
UniProt P33533, whole entry: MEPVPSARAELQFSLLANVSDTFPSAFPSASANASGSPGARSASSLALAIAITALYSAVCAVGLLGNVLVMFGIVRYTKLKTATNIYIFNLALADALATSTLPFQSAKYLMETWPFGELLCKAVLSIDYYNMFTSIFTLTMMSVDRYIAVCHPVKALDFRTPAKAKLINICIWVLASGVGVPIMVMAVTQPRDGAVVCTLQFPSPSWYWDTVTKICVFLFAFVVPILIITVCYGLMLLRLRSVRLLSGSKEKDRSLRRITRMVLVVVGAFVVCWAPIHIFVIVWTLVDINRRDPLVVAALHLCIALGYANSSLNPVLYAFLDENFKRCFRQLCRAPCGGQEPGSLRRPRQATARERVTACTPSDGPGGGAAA

Legend:
[1] = Anti-writhing assay (abdominal stretch assay); settings: in vivo
Protocol: (§1) Furthermore, it has been confirmed that 7a, R=Ph, 22, R=Ph and 30, R=Ph display no opioid agonist actions in vivo, in assays where even a low efficacy opioid agonist would be expected to be active. Thus they display no agonist activity in the anti-writhing assay (abdominal stretch assay) or in the 50° C. tail withdrawal assay.

[2] = Warm water tail withdrawal assay; settings: in vivo, 50° C.
Protocol: Mouse Warm Water Tall Withdrawal Assay. For all of the tail-withdrawal data a minimum of five mice is used in each group. Each mouse (is placed in a cylindrical restraint (Harvard Apparatus, South Natick, Mass., USA) with the tail fully exposed. Approximately one-third of the tail is immersed in water at 48° C. and latency to tail-withdrawal is measured (Janssen et al, 1963). The low temperature is to ensure that compounds with at delta or kappa agonism can be identified. Standards, test compounds or vehicle (usually sterile water) are be administered i.p. and tail-withdrawal latencies measured 25 min later. For antagonist studies compounds are administered 30 min before the first agonist dose. Baseline latencies vehicle injected mice) are typically 2-4 s. A cut-off latency of 20 s is used to prevent injury to the tail.
as §1

human NOP receptor = human NOP receptor (Homo sapiens (Human), UniProt P41146); assay: [35S]GTPγS binding assay, NOP receptor; settings: single concentration (10 μM) versus the standard nociceptin
Protocol: (§2) Cell Culture: C6 glioma cells stably expressing the rat MOR (C6μ) or DOR (C6δ) were grown in Dulbecco's modified eagle medium (DMEM) supplemented with 10% fetal bovine serum (FBS), 90 units/ml penicillin, 90 μg/ml streptomycin, and 0.5 mg/ml geneticin. Chinese hamster ovary cells stably expressing the human KOR (CHOκ) or human NOP receptor CHO-NOP were maintained similarly, except that DMEM-F12 medium was used. All cells were grown under 5% CO2 at 37° C.
(§3) Preparation of Cell Membranes: Cells were washed three times with PBS and detached from plates using harvesting buffer (20 mM HEPES, pH 7.4, 150 mM NaCl, and 0.68 mM EDTA). After centrifugation at 200×g for 3 min, the cell pellet was resuspended in 50 mM Tris-HCl, pH 7.4 and homogenized with a Tissue Tearor (Biospec Products, Inc). The homogenate was pelleted at 20,000×g for 20 min at 4° C. and the pellet resuspended in 50 mM Tris-HCl, pH 7.4 and re-homogenized. The final pellet was resuspended in 50 mM Tris-HCl, pH 7.4 and frozen in aliquots at −80° C. Protein concentration was determined using the BCA protein assay.
(§4) [^35S]GTPγS Binding Assays: As described previously (Traynor and Nahorski, 1995), membranes (20 μg) from cells expressing MOR, DOR, KOR or NOP receptors are incubated in 20 mM Tris-HCl, pH 7.4, 5 mM MgCl2, 100 mM NaCl, 2.2 mM dithiothreltol (prepared freshly), 30 μM GDP, 0.1 nM [^35S]GTPγS, with or without 10 μM of test compound or 10 μM standard (DAMGO, SNC80, U50488H or N/OFQ as appropriate) or H2O for 60 min at 25° C. Samples are filtered through GF/C glass-fiber filtermats mounted on a Brandel cell harvester and rinsed four times with ice-cold 50 mM Tris-HCl, pH 7.4 containing 5 mM MgCl2, and 100 mM NaCl. Filtermats are processed as described for ligand binding above.
(§5) In a measure of functional activity, selected compounds have been evaluated in the [^35S]GTPγS assay in the same cell lines used for the binding assays (Table 2). Assays were performed as previously described by Traynor and Nahorski.^21 Agonist efficacy at MOR, KOR and NOP receptors was determined at a single concentration (10 μM) in comparison to the standard selective agonists DAMGO (MOR), and U69593 (KOR) and nociceptin (NOP) and antagonist Ke values determined against these standard agonists. For example, both 22, R=Ph (Ke(MOR) 0.47 nM, Ke(KOR) 0.41 nM) and 7a, R=Ph (Ke(MOR) 0.47 nM, Ke(KOR) 0.27 nM) are antagonists at MOR and KOR and have partial agonist activity at NOP receptors (40% and 14% of nociceptin's efficacy). 30, R=Ph also has no efficacy at MOR and KOR and is a partial agonist (57% of nociceptin) at NOP receptors.

rat MOR [3] = molecular target: T1, rat MOR (Rattus norvegicus (Rat), UniProt P33535); assay: [35S]GTPγS binding assay, mu receptor; settings: for Mu antagonist potency Ke / Kb: against standard agonist DAMGO; for Kb: read-out: Mu antagonist potency Ke; for Mu % stim (efficacy): single concentration (10 μM) versus the standard DAMGO
Protocol: as §2, §3, §4, §5

human KOR = human KOR (Homo sapiens (Human), UniProt P41145); assay: [35S]GTPγS binding assay, kappa receptor; settings: for Kappa % stim (efficacy): single concentration (10 μM) versus the standard U69,593
Protocol: as §2, §3, §4, §5

rat DOR = rat DOR (Rattus norvegicus (Rat), UniProt P33533); assay: Ligand binding assay, [3H]diprenorphine, delta (DOP) receptor; settings: read-out: Binding affinities (Ki) Delta, membranes of C6 glioma cells expressing rat receptor
Protocol: as §2
(§6) Preparation of Cell Membranes: Cells were washed three times with PBS and detached from plates using harvesting buffer (20 mM HEPES, pH 7.4, 150 mM NaCl, and 0.68 mM EDTA). […] Protein concentration was determined using the BCA protein assay.
(§7) Ligand Binding Assays: As Alt et al., 2002. […] Nonspecific binding is measured using 10 μM naloxone (MOR, DOR, KOR) or N/OFQ (NOP). […] Each filtermat in a heat-sealed bag, is counted in a Wallac 1450 MicroBeta Liquid Scintillation and Luminescence Counter. IC50 values for test compounds are determined from concentration effect curves and converted to Ki values using GraphPad Prism.
(§8) Binding affinities at MOPr, KOPr, DOPr and NOPr were measured using [^3H]diprenorphine (MOP, KOP, DOP) and [^3H]N/OFQ (NOP) binding to membranes derived from CHO cells transfected with human receptors (KOP and NOP receptors) and C6 glioma cells stably expressing rat receptors (MOP and DOP). […]

rat MOR [4] = molecular target: T1, rat MOR; assay: Ligand binding assay, [3H]diprenorphine, mu (MOP) receptor; settings: read-out: Binding affinities (Ki) Mu, membranes of C6 glioma cells expressing rat receptor
Protocol: as §2, §6, §7, §8

Row | Structure (SMILES) | Opioid agonist activity in the anti-writhing assay [1] | Opioid agonist activity in the tail withdrawal assay [2] | Mu % stim (efficacy) (rat MOR [3]) [%] | NOP % stim (efficacy) (human NOP receptor) [%] | Kappa % stim (efficacy) (human KOR) [%] | also measured
1 | CO[C@]12C=C[C@@]3(C[C@]1(C)[C@H](O)c1ccccc1)[C@H]1Cc4ccc(O)c5c4[C@@]3(CCN1CC1CC1)[C@H]2O5 | no agonist activity | no agonist activity | 4 | – | – | NOP % stim (efficacy) (human NOP receptor; listed as 22, R = Ph): 39%; NOP % stim (efficacy) (human NOP receptor; listed as 22, R=Ph): 40%; Mu antagonist potency Ke (rat MOR [3]): 0.47 nM; Kb (rat MOR [3]): 0.47 nM
2 | CO[C@]12C=C[C@@]3(C[C@]1(C)[C@H](O)c1cccc(C)c1)[C@H]1Cc4ccc(O)c5c4[C@@]3(CCN1CC1CC1)[C@H]2O5 | – | – | 22 | 43 | 6 | –
3 | CO[C@]12C=C[C@@]3(C[C@]1(C)[C@H](O)c1ccc(F)cc1)[C@H]1Cc4ccc(O)c5c4[C@@]3(CCN1CC1CC1)[C@H]2O5 | – | – | – | – | – | Ki (rat DOR): 0.47 nM
4 | CO[C@]12CC[C@@]3(C[C@@H]1[C@H](O)c1ccccc1)[C@H]1Cc4ccc(O)c5c4[C@@]3(CCN1CC1CC1)[C@H]2O5 | – | – | – | – | – | Ki (rat MOR [4]): 1.25 nM
5 | CO[C@]12CC[C@@]3(C[C@@H]1[C@](C)(O)c1ccccc1)[C@H]1Cc4ccc(O)c5c4[C@@]3(CCN1CC1CC1)[C@H]2O5 | no agonist activity | no agonist activity | – | 14 | – | Kappa antagonist potency Ke (human KOR; against standard agonist U69593): 0.27 nM; Mu antagonist potency Ke (rat MOR [3]): 0.47 nM; Kb (rat MOR [3]): 0.47 nM
6 | CO[C@]12C=C[C@@]3(C[C@@H]1[C@H](O)c1ccccc1)[C@H]1Cc4ccc(O)c5c4[C@@]3(CCN1CC1CC1)[C@H]2O5 | – | – | – | – | – | Ki (rat DOR): 3.21 nM; Ki (rat MOR [4]): 4.03 nM
7 | CO[C@]12CC[C@@]3(C[C@]1(C)[C@H](O)c1ccc(F)cc1)[C@H]1Cc4ccc(O)c5c4[C@@]3(CCN1CC1CC1)[C@H]2O5 | – | – | 17 | 13 | – | –
8 | CO[C@]12CC[C@@]3(C[C@]1(C)[C@H](O)c1cccc(C)c1)[C@H]1Cc4ccc(O)c5c4[C@@]3(CCN1CC1CC1)[C@H]2O5 | – | – | 9 | 21 | – | –
9 | CO[C@]12CC[C@@]3(C[C@]1(C)[C@H](O)c1ccccc1)[C@H]1Cc4ccc(O)c5c4[C@@]3(CCN1CC1CC1)[C@H]2O5 | no agonist activity | no agonist activity | 2 | 57 | 0 | Efficacy at KOR (in words) (human KOR; [35S]GTPγS, 10 μM versus U69593): no efficacy; Efficacy at MOR (in words) (rat MOR [3]; [35S]GTPγS, 10 μM versus DAMGO): no efficacy
10 | CO[C@]12CC[C@@]3(C[C@@H]1[C@@](C)(O)c1ccncc1)[C@H]1Cc4ccc(O)c5c4[C@@]3(CCN1CC1CC1)[C@H]2O5 | – | – | 1 | 4 | −17 | –
